This passage reports IC50 results from patent US9782415B2, “Substituted pyrazolo[1,5-a]pyrimidine compounds as Trk kinase inhibitors” (Array BioPharma, Inc., priority 2009, dated 2017).

Protein sequences, listed by entry. Tags and fused reporters are not part of them. Residues count along the entry.
UniProt P04629, 440-796: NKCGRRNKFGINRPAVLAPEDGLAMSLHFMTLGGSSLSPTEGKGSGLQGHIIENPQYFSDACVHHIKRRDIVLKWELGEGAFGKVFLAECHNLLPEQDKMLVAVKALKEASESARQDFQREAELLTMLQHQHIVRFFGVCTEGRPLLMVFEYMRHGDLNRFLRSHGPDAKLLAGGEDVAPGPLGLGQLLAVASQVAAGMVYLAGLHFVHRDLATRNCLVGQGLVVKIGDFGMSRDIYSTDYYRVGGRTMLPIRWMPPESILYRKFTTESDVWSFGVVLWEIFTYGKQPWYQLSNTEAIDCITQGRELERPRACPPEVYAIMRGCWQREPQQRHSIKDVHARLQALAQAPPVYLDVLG

This assay addresses histidine-tagged recombinant human TrkA, cytoplasmic domain (Homo sapiens (Human), UniProt P04629). The assay is described as follows: TrkA ELISA Assay. Type of assay: biochemical. As to conditions: Table 1, 500 μM ATP, read-out: TrkA Enzyme IC50. Here is the method: An enzyme-linked immunosorbant assay (ELISA) was used to assess TrkA kinase activity in the presence of inhibitors. […] The assay buffer consisted of 25 mM MOPS pH 7.5, 0.005% (v/v) Triton X-100 and 5 mM MgCl2. The reaction mixture was removed from the plate by washing with PBS containing 0.1% (v/v) Tween 20. […] After the addition of 1M phosphoric acid, the chromogenic substrate color intensity was quantitated via absorbance at 450 nm.
In general terms: In an ELISA, binding on a coated surface is turned into a signal by an enzyme label.

As usually defined, the IC50 is the concentration needed to halve the response being measured. For the compound `CC1(O)CCC(NC(=O)c2cnn3ccc(N4CCC[C@@H]4c4cc(F)ccc4F)nc23)CC1` (stereo partly drawn) [Example 51, 5-((R)-2-(2,5-difluorophenyl)pyrrolidin-1-yl)-N-(4-hydroxy-4-methylcyclohexyl)pyrazolo[1,5-a]pyrimidine-3-carboxamide (Diasteromer 2)], the IC50 was 1.18 nM.
